Assay results as given in patent publication US20220395458A1, “PREVENTION OF VISIBLE PARTICLE FORMATION IN AQUEOUS PROTEIN SOLUTIONS” (Hoffmann-La Roche Inc., priority 2019, published 2022).

Assay: Visible particles in mAb formulations on storage
Type: physicochemical
Conditions: after 12M storage at 25° C.; particles characterized as FFA and Aluminium
Method: mAb1 (IgG1. Mw=145.5 kDa, pertuzumab) and mAb2 (IgG1. Mw=148 kDa, trastuzumab) were obtained from F. Hoffmann-La Roche and formulated with 1000 U/mL hyaluronidase in 20 mM HisHCl buffer pH 5.5, 105 mM Trehalose, 100 mM Sucrose, 10 mM Methionine, and 0.04% Polysorbate 20. The corresponding placebo was the same formulation without proteins. Formulations were stored at 5° C., and 25° C., for 24 months. Spiking experiments including respective controls with placebo were performed in triplicates using either inorganic salt solutions (CaCl2 and NaAlO2 in 10+1 dilution) or glass leachable's from stock solutions in 10+1 or 100+1 dilution.
Precipitation of FFA particle in a protein matrix was further studied in aged mAb1 and mAb2 solutions (22M, 5° C.) by addition of different concentrations of ‘real’ glass leachables. In this experiment, the presence of FFA were a result of PS20 degradation forming over shelf-life of the drug product. Mab1 and mAb2 were formulated in the same matrix but differ in the type of mAb (CDRs). Originating from different drug substance processes and purification processes, the PS20 degradation rates were found different (FIG. 5) as well as the type and concentrations of FFAs as a subsequent result (FIG. 6).
Products were characterized as free of visible particles before the experiment (stored for 22M at 5° C.). […]

With trastuzumab [mAb2] the “Visible particles on storage” value was “showed visible particles”.
